Experimental data taken from patent US9951073B2, “Compounds and compositions for treating chemical warfare agent-induced injuries” (dated 2018).
pIC50: −log10 of the molar value.

Chains of the proteins cited; added tags and fusions are not shown.
UniProt O75762, whole entry, looked up: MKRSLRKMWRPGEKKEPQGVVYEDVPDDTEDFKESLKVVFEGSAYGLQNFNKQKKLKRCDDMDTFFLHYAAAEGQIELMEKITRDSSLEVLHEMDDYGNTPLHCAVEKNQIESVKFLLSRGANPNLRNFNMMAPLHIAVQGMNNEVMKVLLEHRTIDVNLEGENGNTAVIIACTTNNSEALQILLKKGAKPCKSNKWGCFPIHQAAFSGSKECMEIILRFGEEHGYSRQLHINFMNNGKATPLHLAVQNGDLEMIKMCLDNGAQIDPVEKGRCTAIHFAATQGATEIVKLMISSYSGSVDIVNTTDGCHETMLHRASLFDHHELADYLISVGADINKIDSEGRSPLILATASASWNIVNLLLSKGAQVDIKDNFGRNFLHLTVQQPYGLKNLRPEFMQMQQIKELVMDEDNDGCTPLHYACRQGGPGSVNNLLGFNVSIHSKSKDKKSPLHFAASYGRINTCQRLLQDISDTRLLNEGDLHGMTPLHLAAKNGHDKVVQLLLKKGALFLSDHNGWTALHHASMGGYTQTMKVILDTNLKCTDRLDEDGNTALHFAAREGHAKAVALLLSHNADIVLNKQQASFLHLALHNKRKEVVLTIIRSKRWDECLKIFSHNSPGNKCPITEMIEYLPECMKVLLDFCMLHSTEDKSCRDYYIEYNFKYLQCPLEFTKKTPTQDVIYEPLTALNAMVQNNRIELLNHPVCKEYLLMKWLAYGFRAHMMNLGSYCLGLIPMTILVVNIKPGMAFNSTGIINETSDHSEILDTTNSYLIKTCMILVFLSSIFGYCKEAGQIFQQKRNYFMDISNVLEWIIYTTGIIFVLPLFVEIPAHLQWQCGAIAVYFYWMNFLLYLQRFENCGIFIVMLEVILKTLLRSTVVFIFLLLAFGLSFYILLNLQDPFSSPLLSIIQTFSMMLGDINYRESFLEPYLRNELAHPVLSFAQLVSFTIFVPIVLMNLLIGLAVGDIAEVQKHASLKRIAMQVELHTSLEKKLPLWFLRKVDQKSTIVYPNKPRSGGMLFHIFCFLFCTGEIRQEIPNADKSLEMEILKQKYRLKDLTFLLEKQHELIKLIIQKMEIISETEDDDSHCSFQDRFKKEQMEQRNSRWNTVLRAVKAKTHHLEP

Biological target: TRPA1 channel (Homo sapiens, UniProt O75762)
Assay: Whole-cell patch clamp experiments, block of AITC-evoked current in HEK293/TREx TRPA1 cells
Settings: read-out: activity (IC50) as measured in the patch clamp assay, HEK293/TREx TRPA1 cells induced with tetracycline, block of current in the continued presence of AITC

With `CCOc1ccc2nc(NC(=O)Cn3cnc4c3c(=O)n(C)c(=O)n4C)sc2c1` the pIC50 was greater than 6.00.

`Cn1c(=O)c2c(ncn2CC(=O)NCC2CCCCC2)n(C)c1=O` showed a pIC50 of 5.00 to 6.00.

`Cc1ccc(NC(=O)Cn2c(Cl)nc3c2c(=O)n(C)c(=O)n3C)cc1` was tested, and the pIC50 was less than 5.00.

In the case of `Cn1c(=O)c2c(ncn2CC(=O)NCCN2CCOCC2)n(C)c1=O`, the pIC50 was less than 5.00.

With `Cc1ccc(CCNC(=O)Cn2cnc3c2c(=O)n(C)c(=O)n3C)cc1C` the pIC50 was 5.00 to 6.00.

`Cn1c(=O)c2c(ncn2CC(=O)Nc2nc3ccc(Br)cc3s2)n(C)c1=O` showed a pIC50 greater than 6.00.

For `Cc1ccc(CCN(C)CCn2cnc3c2c(=O)n(C)c(=O)n3C)cc1`, the pIC50 was 5.00 to 6.00.

Work on `Cn1c(=O)c2c(ncn2CC(=O)NCCc2c(Cl)cccc2Cl)n(C)c1=O` yielded a pIC50 of 5.00 to 6.00.

With `Cn1c(=O)c2c(ncn2CC(=O)N[C@H](CO)Cc2ccccc2)n(C)c1=O` the pIC50 was 5.00 to 6.00.

`COc1ccc(CCNC(=O)Cn2c(=O)[nH]c3c(=O)n(C)c(=O)n(C)c32)cc1` gave a pIC50 of less than 5.00.

`Cn1c(=O)c2c(ncn2CC(=O)NCCC23CC4CC(CC(C4)C2)C3)n(C)c1=O` was tested, and the pIC50 was greater than 6.00.

`Cn1c(=O)c2c(ncn2CC(=O)N[C@H]2CN3CCC2CC3)n(C)c1=O` showed a pIC50 of less than 5.00.

With `Cn1c(=O)c2c(ncn2CC(=O)NCCc2ccc(OCc3ccccc3)cc2)n(C)c1=O` the pIC50 was 5.00 to 6.00.

`Cn1c(=O)c2c(ncn2CC(=O)NCCc2ccccc2Br)n(C)c1=O` gave a pIC50 of 5.00 to 6.00.

In the case of `CC(=O)N(CCc1ccc(C)cc1)CCn1cnc2c1c(=O)n(C)c(=O)n2C`, the pIC50 was greater than 6.00.

For `COc1cccc(CCNC(=O)Cn2cnc3c2c(=O)n(C)c(=O)n3C)c1OC`, the pIC50 was 5.00 to 6.00.

Molecule `Cn1c(=O)c2c(ncn2CC(=O)NCCN2CCCCC2)n(C)c1=O` has a pIC50 of less than 5.00.

Work on `CCCCOc1ccc(CCNC(=O)Cn2cnc3c2c(=O)n(C)c(=O)n3C)cc1` yielded a pIC50 of 5.00 to 6.00.

With `Cn1c(=O)c2c(ncn2CC(=O)NCCC2CCC(O)CC2)n(C)c1=O` (stereo not drawn) the pIC50 was less than 5.00.

`Cn1c(=O)c2c(ncn2CC(=O)NCCC2CCCCC2)n(C)c1=O` showed a pIC50 of less than 5.00.

In the case of `CCn1c(=O)c2c(ncn2CC(=O)NCCc2ccc(OC)cc2)n(CC)c1=O`, the pIC50 was less than 5.00.

`CCCn1c(=O)c2c(ncn2CC(=O)NCCc2ccc(C)cc2)n(C)c1=O` showed a pIC50 of less than 5.00.

In the case of `COc1ccc(CCNC(=O)Cn2c(=O)[nH]c3c2c(=O)n(C)c(=O)n3C)cc1`, the pIC50 was less than 5.00.

In the case of `CN1CCN(CCNC(=O)Cn2cnc3c2c(=O)n(C)c(=O)n3C)CC1`, the pIC50 was 5.00 to 6.00.

Molecule `Cn1c(=O)c2c(ncn2CC(=O)N/N=C/c2ccc(C(F)(F)F)cc2)n(C)c1=O` has a pIC50 of 5.00 to 6.00.

Molecule `Cn1c(=O)c2c(ncn2CC(=O)NCCc2ccc(C3CCCCC3)cc2)n(C)c1=O` has a pIC50 greater than 6.00.

`Cn1c(=O)c2c(nc(Cl)n2CC(=O)NCCSc2ccc(Cl)cc2)n(C)c1=O` gave a pIC50 greater than 6.00.

For `COc1ccc([C@H]2C[C@@H]2NC(=O)Cn2cnc3c2c(=O)n(C)c(=O)n3C)cc1`, the pIC50 was 5.00 to 6.00.

For `Cn1c(=O)c2c(ncn2CC(=O)NCCc2ccc(Cl)cc2Cl)n(C)c1=O`, the pIC50 was 5.00 to 6.00.

In the case of `Cn1c(=O)c2c(ncn2CC(=O)N[C@@H](CO)Cc2ccccc2)n(C)c1=O`, the pIC50 was 5.00 to 6.00.

`Cn1c(=O)c2c(ncn2CC(=O)NCCc2cccc(Cl)c2Cl)n(C)c1=O` showed a pIC50 of 5.00 to 6.00.

`CCCn1c(=O)n(C)c(=O)c2c1ncn2CC(=O)NCCc1ccc(C)cc1` showed a pIC50 of 5.00 to 6.00.

`COc1ccc([C@@H]2C[C@@H]2NC(=O)Cn2cnc3c2c(=O)n(C)c(=O)n3C)cc1` showed a pIC50 of 5.00 to 6.00.

With `CCCn1c(=O)n(C)c(=O)c2c1ncn2CC(=O)NCCc1ccccc1` the pIC50 was greater than 6.00.

`Cc1ccc(CCN(CCn2cnc3c2c(=O)n(C)c(=O)n3C)S(C)(=O)=O)cc1` showed a pIC50 of 5.00 to 6.00.

Molecule `Cn1c(=O)c2c(ncn2CC(=O)NCCc2ccncc2)n(C)c1=O` has a pIC50 of less than 5.00.

Work on `COc1ccc(OC)c(CCNC(=O)Cn2cnc3c2c(=O)n(C)c(=O)n3C)c1` yielded a pIC50 of 5.00 to 6.00.

With `COc1ccc(CNC(=O)CCn2cnc3c2c(=O)n(C)c(=O)n3C)cc1` the pIC50 was less than 5.00.

With `COc1ccc(CCNC(=O)Cn2c(=O)n(C)c3c2c(=O)n(C)c(=O)n3C)cc1` the pIC50 was 5.00 to 6.00.

For `Cn1c(=O)c2c(ncn2CC(=O)NCCc2cccc(F)c2)n(C)c1=O`, the pIC50 was 5.00 to 6.00.

With `COc1ccc(CS(=O)(=O)NC(=O)Cn2cnc3c2c(=O)n(C)c(=O)n3C)cc1` the pIC50 was 5.00 to 6.00.

With `Cn1c(=O)c2c(ncn2CC(=O)NCCc2ccc(C(C)(C)C)cc2)n(C)c1=O` the pIC50 was 5.00 to 6.00.

Work on `CCc1ccc(CCNC(=O)Cn2cnc3c2c(=O)n(C)c(=O)n3C)cc1` yielded a pIC50 of 5.00 to 6.00.

`Cc1ccc(F)cc1NC(=O)Cn1cnc2c1c(=O)n(C)c(=O)n2C` showed a pIC50 of 5.00 to 6.00.

For `COc1ccc(CCNS(=O)(=O)Cn2cnc3c2c(=O)n(C)c(=O)n3C)cc1`, the pIC50 was less than 5.00.

For `Cn1c(=O)c2c(ncn2CC(=O)NCCc2ccc(-c3ccccc3)cc2)n(C)c1=O`, the pIC50 was greater than 6.00.

In the case of `Cc1ccc(CCOC(=O)Cn2cnc3c2c(=O)n(C)c(=O)n3C)cc1`, the pIC50 was 5.00 to 6.00.

`CC(CNC(=O)Cn1cnc2c1c(=O)n(C)c(=O)n2C)c1ccccc1` (stereo not drawn) showed a pIC50 of 5.00 to 6.00.

Work on `Cc1ccc(CCNCCn2cnc3c2c(=O)n(C)c(=O)n3C)cc1` yielded a pIC50 of 5.00 to 6.00.

`Cn1c(=O)c2c(nc(Cl)n2CC(=O)Nc2ccc3c(c2)CCC3)n(C)c1=O` gave a pIC50 greater than 6.00.

Molecule `Cn1c(=O)c2c(ncn2CC(=O)NCCc2ccc3c(c2)OCO3)n(C)c1=O` has a pIC50 of 5.00 to 6.00.
